As a reminder, the IC50 is the concentration needed to halve the response being measured.

Amino acid sequences for entries named in this document (tags omitted).
UniProt Q13191, whole entry: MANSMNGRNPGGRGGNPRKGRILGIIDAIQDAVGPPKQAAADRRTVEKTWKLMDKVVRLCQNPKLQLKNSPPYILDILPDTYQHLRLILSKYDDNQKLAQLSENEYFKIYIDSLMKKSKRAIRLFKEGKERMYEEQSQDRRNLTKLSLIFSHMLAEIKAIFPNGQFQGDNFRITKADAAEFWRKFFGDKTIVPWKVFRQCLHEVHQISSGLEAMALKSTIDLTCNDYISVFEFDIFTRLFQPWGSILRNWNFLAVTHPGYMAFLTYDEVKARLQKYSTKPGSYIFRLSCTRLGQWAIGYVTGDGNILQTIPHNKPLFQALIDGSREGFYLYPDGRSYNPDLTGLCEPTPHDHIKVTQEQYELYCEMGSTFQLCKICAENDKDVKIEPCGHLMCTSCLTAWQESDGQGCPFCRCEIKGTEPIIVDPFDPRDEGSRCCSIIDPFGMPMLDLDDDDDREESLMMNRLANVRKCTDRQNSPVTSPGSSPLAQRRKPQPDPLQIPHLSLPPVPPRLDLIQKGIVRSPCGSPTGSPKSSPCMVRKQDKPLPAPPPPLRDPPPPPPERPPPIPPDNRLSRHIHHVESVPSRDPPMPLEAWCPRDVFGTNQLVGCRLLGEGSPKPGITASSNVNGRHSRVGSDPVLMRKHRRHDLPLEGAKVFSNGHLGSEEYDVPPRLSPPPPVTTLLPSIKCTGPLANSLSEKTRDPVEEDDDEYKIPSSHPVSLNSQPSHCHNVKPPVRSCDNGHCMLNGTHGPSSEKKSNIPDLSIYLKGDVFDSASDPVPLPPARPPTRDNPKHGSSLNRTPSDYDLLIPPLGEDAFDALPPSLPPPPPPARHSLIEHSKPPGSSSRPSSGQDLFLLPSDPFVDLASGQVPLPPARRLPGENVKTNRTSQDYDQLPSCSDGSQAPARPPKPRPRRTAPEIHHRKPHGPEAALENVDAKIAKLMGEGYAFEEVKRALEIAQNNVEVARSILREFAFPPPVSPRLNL

In this test the target is E3 ubiquitin-protein ligase CBL-B (Homo sapiens, UniProt Q13191). Put plainly: Inhibition of biotinylated recombinant Cbl-b (36 to 427 residues)(unknown origin) expressed in Escherichia coli BL21(DE3) measured for 1 hr by TR-FRET assay. On the technique in general: Time-resolved FRET reads energy transfer from a long-lived donor to a nearby acceptor.

Regarding `C[C@@H](c1cnn(C)c1)n1cc(C(F)(F)F)cc(-c2cccc([C@]3(c4nncn4C)C[C@@H](C)C3)c2)c1=O`, the IC50 came out at 0.03 µM.
